ChEMBL document CHEMBL4014323, “Hydroxy-Substituted Heteroarylpiperazines: Novel Scaffolds for β-Arrestin-Biased D2R Agonists” (J Med Chem, 2017)

By UniProt entry, the sequences of proteins in these tests, tags left out.
UniProt P21918, whole entry: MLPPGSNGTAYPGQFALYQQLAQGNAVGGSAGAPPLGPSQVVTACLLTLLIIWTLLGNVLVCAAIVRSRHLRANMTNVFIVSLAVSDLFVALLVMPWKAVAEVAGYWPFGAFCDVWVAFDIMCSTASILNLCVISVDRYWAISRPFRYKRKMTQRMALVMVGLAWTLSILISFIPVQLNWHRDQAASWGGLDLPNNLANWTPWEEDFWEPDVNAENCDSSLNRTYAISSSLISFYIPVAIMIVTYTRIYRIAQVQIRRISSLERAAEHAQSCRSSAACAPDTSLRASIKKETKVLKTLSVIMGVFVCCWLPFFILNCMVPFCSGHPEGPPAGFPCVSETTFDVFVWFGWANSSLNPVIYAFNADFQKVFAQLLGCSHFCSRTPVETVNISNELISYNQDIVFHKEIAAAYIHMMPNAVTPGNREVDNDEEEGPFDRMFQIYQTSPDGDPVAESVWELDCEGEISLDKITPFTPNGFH
UniProt P21728, whole entry: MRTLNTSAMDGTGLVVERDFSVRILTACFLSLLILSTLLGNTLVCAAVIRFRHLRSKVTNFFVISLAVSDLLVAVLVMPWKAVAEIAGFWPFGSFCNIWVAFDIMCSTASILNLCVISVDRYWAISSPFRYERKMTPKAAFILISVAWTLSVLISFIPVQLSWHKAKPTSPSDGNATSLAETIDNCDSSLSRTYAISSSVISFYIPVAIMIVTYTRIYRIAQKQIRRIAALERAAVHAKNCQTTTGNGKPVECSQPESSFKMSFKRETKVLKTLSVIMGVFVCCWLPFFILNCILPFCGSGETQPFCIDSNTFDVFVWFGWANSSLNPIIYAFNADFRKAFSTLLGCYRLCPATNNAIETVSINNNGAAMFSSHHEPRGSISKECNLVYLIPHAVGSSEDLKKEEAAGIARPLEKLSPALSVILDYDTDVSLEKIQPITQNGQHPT

Tests used:
D(1B) dopamine receptor = D(1B) dopamine receptor (Homo sapiens, UniProt P21918); assay: biochemical
D(1A) dopamine receptor = D(1A) dopamine receptor (Homo sapiens, UniProt P21728); assay: biochemical

Question: `O=C1CCc2ccc(OCCCCN3CCCN(c4cccc(Cl)c4Cl)CC3)cc2N1` was tested. Which pKi (D(1B) dopamine receptor) did it give?
Answer: 5.96

Question: What about the pKi (D(1A) dopamine receptor) of the same compound?
Answer: 6.47

pKi: −log10 of the molar value.
